Literature values as cited in US20130209985A1, “SAMPLE COLLECTION DEVICES WITH BLOOD STABILIZING AGENTS” (priority 2012, published 2013).

Protein sequences, listed by entry. Tags and fused reporters are not part of them. Lines headed by an entry give the natural chain unless they say otherwise; changes in a name come on top.
UniProt P22303: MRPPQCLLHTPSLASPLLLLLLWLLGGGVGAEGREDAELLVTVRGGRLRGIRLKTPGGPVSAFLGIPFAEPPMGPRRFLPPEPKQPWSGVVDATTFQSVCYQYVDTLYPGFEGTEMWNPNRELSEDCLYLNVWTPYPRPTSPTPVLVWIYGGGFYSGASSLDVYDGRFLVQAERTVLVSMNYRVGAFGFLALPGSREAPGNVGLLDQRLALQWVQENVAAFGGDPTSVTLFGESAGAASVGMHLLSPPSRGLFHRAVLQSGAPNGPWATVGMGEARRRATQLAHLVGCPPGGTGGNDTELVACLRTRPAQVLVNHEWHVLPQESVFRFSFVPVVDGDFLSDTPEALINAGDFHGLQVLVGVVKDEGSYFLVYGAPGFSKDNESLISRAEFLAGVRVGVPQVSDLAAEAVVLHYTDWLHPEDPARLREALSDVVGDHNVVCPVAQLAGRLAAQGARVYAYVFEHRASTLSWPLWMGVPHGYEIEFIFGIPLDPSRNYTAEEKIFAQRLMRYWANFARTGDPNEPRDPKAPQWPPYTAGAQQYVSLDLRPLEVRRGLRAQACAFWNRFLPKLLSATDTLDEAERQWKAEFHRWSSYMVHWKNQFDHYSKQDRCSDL

Molecular target: acetylcholinesterase (AChE) (Homo sapiens, UniProt P22303)
Settings: read-out: Ki for AChE; reported literature values; cited from earlier work

Row | Substance | Ki [µM]
1 | (9E)-N1-(7-(1,2,3,4-Tetrahydroacridin-9-ylamino)heptyl)-9-ethylidene-4,4,7-trimethylbicyclo[3.3.1]non-6-ene-1,3-diamine | 0.0165
2 | (9E)-N1-(7-(1,2,3,4-Tetrahydroacridin-9-ylamino)heptyl)-9-ethylidene-7-methylbicyclo[3.3.1]non-6-ene-1,3-diamine | 0.0157
